Reference: patent US20160257749A1, “ANTI-TIM3 ANTIBODIES AND METHODS OF USE” (Hoffmann-La Roche, Inc., priority 2014, published 2016)

Tested on: TIM-3 pathway
Assay: Mixed lymphocyte reaction (MLR), IFN-gamma secretion
Type: cell-based, human
Conditions: MLR + IL-2 20 U/ml
Experimental: T cells in the assay were tested for activation and IFN-gamma secretion in the presence or absence of an anti-TIM-3 mAbs.
Human Lymphocytes were isolated from peripheral blood of healthy donor by density gradient centrifugation using Leukosep (Greiner Bio One, 227 288). Briefly, heparinized blood were diluted with the three fold volume of PBS and 25 ml aliquots of the diluted blood were layered in 50 ml Leukosep tubes. After centrifugation at 800×g for 15 min at room temperature (w/o break) the lymphocyte containing fractions were harvested, washed in PBS and used directly in functional assay or resuspended in freezing medium (10% DMSO, 90% FCS) at 1.0E+07 cells/ml and stored in liquid nitrogen. […] The levels of IFN-gamma were measured using OptEIA ELISA kit (BD Biosciences).

## IL-2: rec hu IL-2 (20 EU/ml) used as positive control in MLR [reference compound]
  Percentage of IFNgamma release, positive control set as 100%: 100%
